Assays:
Details in all cases: Compound concentration 10.0 uM
[1] = target: Kappa-type opioid receptor (Homo sapiens) (UniProt P41145); assay: GPCRScan assay: inhibition of KOR
[2] = target: Mu-type opioid receptor (Homo sapiens) (UniProt P35372); assay: GPCRScan assay: inhibition of MOR
[3] = target: Sigma non-opioid intracellular receptor 1 (Homo sapiens) (UniProt Q99720); assay: GPCRScan assay: inhibition of Sigma 1; design: radioligand conc. used [nm] 4.0 – 5.0, parental cells HEKT
[4] = target: Delta-type opioid receptor (Homo sapiens) (UniProt P41143); assay: GPCRScan assay: inhibition of DOR; design: radioligand conc. used [nm] 1.0 – 2.0, parental cells stable HEK

By UniProt entry, the sequences of proteins in these tests, tags left out.
UniProt P41145, whole entry: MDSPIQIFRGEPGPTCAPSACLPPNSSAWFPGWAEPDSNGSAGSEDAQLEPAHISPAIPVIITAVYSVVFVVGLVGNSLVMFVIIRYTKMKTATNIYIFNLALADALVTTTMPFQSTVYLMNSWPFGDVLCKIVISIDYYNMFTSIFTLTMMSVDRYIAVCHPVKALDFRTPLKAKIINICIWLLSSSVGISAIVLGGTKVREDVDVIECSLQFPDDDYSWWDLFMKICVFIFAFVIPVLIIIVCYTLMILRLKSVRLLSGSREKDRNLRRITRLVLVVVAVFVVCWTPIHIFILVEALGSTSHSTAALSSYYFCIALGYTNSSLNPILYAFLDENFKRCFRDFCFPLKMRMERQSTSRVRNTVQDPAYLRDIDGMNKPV
UniProt P35372, whole entry: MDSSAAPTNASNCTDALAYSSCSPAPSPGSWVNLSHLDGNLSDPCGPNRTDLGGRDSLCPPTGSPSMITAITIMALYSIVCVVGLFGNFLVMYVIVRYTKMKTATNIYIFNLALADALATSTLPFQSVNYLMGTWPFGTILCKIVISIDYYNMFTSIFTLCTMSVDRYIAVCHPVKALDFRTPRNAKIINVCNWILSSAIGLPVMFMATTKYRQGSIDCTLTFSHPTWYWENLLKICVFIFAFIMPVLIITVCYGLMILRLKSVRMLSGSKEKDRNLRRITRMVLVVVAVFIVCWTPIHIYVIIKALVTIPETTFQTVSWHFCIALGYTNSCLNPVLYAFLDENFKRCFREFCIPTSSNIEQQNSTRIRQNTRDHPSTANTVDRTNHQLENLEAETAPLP
UniProt Q99720, whole entry: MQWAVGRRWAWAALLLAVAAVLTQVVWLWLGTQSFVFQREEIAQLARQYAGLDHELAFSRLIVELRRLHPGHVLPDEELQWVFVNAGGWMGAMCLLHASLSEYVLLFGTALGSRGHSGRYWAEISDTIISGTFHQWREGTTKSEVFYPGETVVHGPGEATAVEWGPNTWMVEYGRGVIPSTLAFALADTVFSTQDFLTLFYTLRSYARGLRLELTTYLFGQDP
UniProt P41143, whole entry: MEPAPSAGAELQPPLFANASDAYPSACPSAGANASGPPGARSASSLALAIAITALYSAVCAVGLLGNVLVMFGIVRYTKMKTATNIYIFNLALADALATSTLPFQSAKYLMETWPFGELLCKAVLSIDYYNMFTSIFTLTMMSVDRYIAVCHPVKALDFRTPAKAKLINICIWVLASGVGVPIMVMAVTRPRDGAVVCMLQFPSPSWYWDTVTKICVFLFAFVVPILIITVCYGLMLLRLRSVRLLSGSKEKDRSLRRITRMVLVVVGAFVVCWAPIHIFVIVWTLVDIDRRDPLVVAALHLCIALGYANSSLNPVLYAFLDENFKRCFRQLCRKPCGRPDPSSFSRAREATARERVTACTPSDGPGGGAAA

Measured: inhibition

C=CC(=O)Nc1ccc2[nH]c(=O)n(C3CCN(Cc4ccc(-c5nc6cc[nH]c(=O)c6cc5-c5ccccc5)cc4)CC3)c2c1
inactive: [1] 48.7% | [2] 32.4% | [3] 17.8% | [4] 24.1%
